Values quoted from earlier work, collected in patent publication US20100062043A1, “Methods, Systems and Devices for Administration of Chlorine Dioxide” (priority 2008, published 2010).

Conditions: chlorite ion/chlorous acid equilibrium; background statement

Substance: chlorous acid
- pKa: 1.8
